Drawing on patent US6521659B2, “Compositions containing a substituted indolealkanoic acid and an angiotensin converting enzyme inhibitor” (Institute for Pharmaceutical Discovery, LLC, priority 2000, dated 2003), this text covers HALR1/hALR2 and IC50 for 22 compounds.

pIC50: −log10 of the molar value.

The first experiment deals with human aldose reductase (hALR2) (Homo sapiens, UniProt P15121). Kind of experiment: Inhibition of human aldose reductase (hALR2), methods similar to Butera et al. It counts as biochemical. The following applies: ratio of hALR1 IC50 to hALR2 IC50 (selectivity). The method, then: Representative compounds of Formula Iwere tested for their potency, selectivity and efficacy as inhibitors of human aldose reductase.
Since high potency of test compounds as inhibitors of aldose reductase is desirable, low hALR2 IC50 values are sought. On the other hand, high potency of test compounds as inhibitors of aldehyde reductase is undesirable, and high ALR1 IC50s values are sought. Accordingly, the hALR1/hALR2 ratio is used to determine the selectivity of the test compounds. The importance of this selectivity is Described in Kotani, et al., J. Med. Chem. 40: 684, 1997.
`Cc1c(Cc2nc3c(F)c(F)cc(F)c3s2)c2ccccc2n1CC(=O)O` [Example 1, 2-methyl-3-(4,5,7-trifluorobenzothiazol-2-yl)methyl-indole-N-acetic Acid]: the HALR1/hALR2 was 1,200.

Take `O=C(O)Cn1cc(Cc2nc3c(F)c(F)cc(F)c3s2)c2cc(Cl)ccc21` [Example 2, 5-chloro-3-(4,5,7-Trifluorobenzothiazol-2-yl)methyl-indole-N-acetic Acid]: the HALR1/hALR2 is 1,100.

In the case of `Cc1ccc2c(c1)c(Cc1nc3c(F)c(F)cc(F)c3s1)cn2CC(=O)O` [Example 4, 5-methyl-3-(4,5,7-trifluorobenzothiazol-2-yl)methyl-indole-N-acetic Acid], the HALR1/hALR2 is listed as 4,250.

Take `Cc1cccc2c(Cc3nc4c(F)c(F)cc(F)c4s3)cn(CC(=O)O)c12` [Example 5, 7-methyl-3-(4,5,7-trifluorobenzothiazol-2-yl)methyl-indole-N-acetic Acid]: the HALR1/hALR2 is reported as 3,500.

Consider `O=C(O)Cn1cc(Cc2nc3c(F)c(F)cc(F)c3s2)c2ccc(Cl)cc21` [Example 6, 6-chloro-3-(4,5,7-trifluorobenzothiazol-2-yl)methyl-indole-N-acetic Acid], for which the HALR1/hALR2 came out at 340.

For `O=C(O)Cn1cc(Cc2nc3c(F)c(F)cc(F)c3s2)c2cc(OCc3ccccc3)ccc21` [Example 7, 5-benzyloxy-3-(4,5,7-trifluorobenzothiazol-2-yl)methyl-indole-N-acetic Acid], the HALR1/hALR2 is 400.

For the compound `O=C(O)Cn1cc(Cc2nc3c(F)c(F)cc(F)c3s2)c2ccc(F)cc21` [Example 8, 6-fluoro-3-(4,5,7-trifluorobenzothiazol-2-yl)methyl-indole-N-acetic Acid], the HALR1/hALR2 is reported as 1,100.

Take `O=C(O)Cn1cc(Cc2nc3c(F)c(F)cc(F)c3s2)c2cc(F)ccc21` [Example 9, 5-fluoro-3-(4,5,7-trifluorobenzothiazol-2-yl)methyl-indole-N-acetic Acid]: the HALR1/hALR2 is 1,900.

Regarding `Cc1ccc2c(Cc3nc4c(F)c(F)cc(F)c4s3)cn(CC(=O)O)c2c1` [Example 10, 6-methyl-3-(4,5,7-trifluorobenzothiazol-2-yl)methyl-indole-N-acetic Acid], the HALR1/hALR2 is listed as 2,600.

For the compound `O=C(O)Cn1cc(Cc2nc3cc(C(F)(F)F)ccc3s2)c2ccccc21` [Example 11, 3-(5-trifluoromethylbenzothiazol-2-yl)methyl-indole-N-acetic Acid], the HALR1/hALR2 is given as 57.

Take `O=C(O)Cn1c(-c2ccccc2)c(Cc2nc3c(F)c(F)cc(F)c3s2)c2ccccc21` [Example 14, 2-phenyl-3-(4,5,7-trifluorobenzothiazol-2-yl)methyl-indole-N-acetic Acid]: the HALR1/hALR2 worked out at 160.

Consider `O=C(O)Cn1cc(Cc2nc3c(F)c(F)cc(F)c3s2)c2cc(-c3ccccc3)ccc21` [Example 15, 5-phenyl-3-(4,5,7-trifluorobenzothiazol-2-yl)methyl-indole-N-acetic acid], for which the HALR1/hALR2 worked out at 190.

As for `O=C(O)Cn1cc(Cc2nc3c(F)c(F)cc(F)c3s2)c2cc(N3CCOCC3)ccc21` [Example 17, 5-morpholino-3-(4,5.7-trifluorobenzothiazol-2-yl)methyl-indole-N-acetic Acid], the HALR1/hALR2 is on record as 5,100.

For `O=C(O)Cn1cc(Cc2nc3c(F)c(F)cc(F)c3s2)c2cc(Oc3ccccc3)ccc21` [Example 19, 5-phenoxy-3-(4,5,7-trifluorobenzothiazol-2-yl)methyl-indole-N-acetic Acid], the HALR1/hALR2 stood at 370.

For `O=C(O)Cn1cc(Cc2nc3c(F)c(F)cc(F)c3s2)c2cccc(F)c21` [Example 20, 7-fluoro-3-(4,5,7-trifluorobenzothiazol-2-yl)methyl-indole-N-acetic Acid], the HALR1/hALR2 is given as 1,000.

As to `O=C(O)Cn1cc(Cc2nc3c(F)c(F)cc(F)c3s2)c2cccc(Br)c21` [Example 21, 7-bromo-3-(4,5,7-trifluorobenzothiazol-2-yl)methyl-indole-N-acetic Acid], the HALR1/hALR2 was 1,300.

As for `O=C(O)Cn1cc(Cc2nc3c(F)c(F)cc(F)c3s2)c2cccc(Cl)c21` [Example 22, 7-chloro-3-(4,5,7-trifluorobenzothiazol-2-yl)methyl-indole-N-acetic Acid], the HALR1/hALR2 is recorded as 2,100.

In the case of `CC(C(=O)O)n1cc(Cc2nc3c(F)c(F)cc(F)c3s2)c2ccccc21` (stereo not drawn) [Example 25, 3-(4.5,7-trifluorobenzothiazol-2-yl)methyl-indole-N-2-propionic Acid], the HALR1/hALR2 is reported as 41.

On to `O=C(O)CCn1cc(Cc2nc3c(F)c(F)cc(F)c3s2)c2ccccc21` [Example 26, 3-(4-5.7-trifluorobenzothiazol-2-yl)methyl-indole-N-3-propionic Acid], for which the HALR1/hALR2 is given as 5,200.

For the compound `COc1ccc2c(Cc3nc4c(F)c(F)cc(F)c4s3)cn(CC(=O)O)c2c1` [Example 28, 6-Methoxy-3-(4,5,7-trifluorobenzothiazol-2-yl)methyl-indole-N-acetic acid], the HALR1/hALR2 was 2,400.

A further experiment has as its target T1, human aldehyde reductase (hALR1) (Homo sapiens, UniProt P14550).
T1 sequence (P14550 1-325): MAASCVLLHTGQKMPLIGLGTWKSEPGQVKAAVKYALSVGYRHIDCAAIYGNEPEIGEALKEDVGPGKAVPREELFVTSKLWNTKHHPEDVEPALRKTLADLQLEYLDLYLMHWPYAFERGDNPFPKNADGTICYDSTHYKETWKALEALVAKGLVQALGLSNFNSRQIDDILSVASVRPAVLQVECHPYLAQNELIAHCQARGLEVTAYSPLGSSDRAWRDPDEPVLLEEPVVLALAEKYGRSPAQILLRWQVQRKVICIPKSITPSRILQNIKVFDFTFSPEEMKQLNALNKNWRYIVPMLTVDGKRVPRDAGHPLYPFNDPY
Description: Inhibition of human aldehyde reductase (hALR1), methods of Ishii et al. It counts as biochemical.
Details: not given
The method, then: In a second assay, a number of the same compounds were tested for their ability to inhibit aldehyde reductase (hALR1), a structurally related enzyme.
Since high potency of test compounds as inhibitors of aldose reductase is desirable, low hALR2 IC50 values are sought. On the other hand, high potency of test compounds as inhibitors of aldehyde reductase is undesirable, and high ALR1 IC50s values are sought. Accordingly, the hALR1/hALR2 ratio is used to determine the selectivity of the test compounds.
`Cc1c(Cc2nc3c(F)c(F)cc(F)c3s2)c2ccccc2n1CC(=O)O` [Example 1, 2-methyl-3-(4,5,7-trifluorobenzothiazol-2-yl)methyl-indole-N-acetic Acid] had a pIC50 of 4.89.

The compound `O=C(O)Cn1cc(Cc2nc3c(F)c(F)cc(F)c3s2)c2cc(Cl)ccc21` [Example 2, 5-chloro-3-(4,5,7-Trifluorobenzothiazol-2-yl)methyl-indole-N-acetic Acid] had a pIC50 of 4.96.

The compound `Cc1ccc2c(c1)c(Cc1nc3c(F)c(F)cc(F)c3s1)cn2CC(=O)O` [Example 4, 5-methyl-3-(4,5,7-trifluorobenzothiazol-2-yl)methyl-indole-N-acetic Acid] gave a pIC50 of 4.47.

With `Cc1cccc2c(Cc3nc4c(F)c(F)cc(F)c4s3)cn(CC(=O)O)c12` [Example 5, 7-methyl-3-(4,5,7-trifluorobenzothiazol-2-yl)methyl-indole-N-acetic Acid], the negative logarithm of the IC50 (pIC50) is 4.68.

On to `O=C(O)Cn1cc(Cc2nc3c(F)c(F)cc(F)c3s2)c2ccc(Cl)cc21` [Example 6, 6-chloro-3-(4,5,7-trifluorobenzothiazol-2-yl)methyl-indole-N-acetic Acid], for which the pIC50 is 5.57.

With `O=C(O)Cn1cc(Cc2nc3c(F)c(F)cc(F)c3s2)c2cc(OCc3ccccc3)ccc21` [Example 7, 5-benzyloxy-3-(4,5,7-trifluorobenzothiazol-2-yl)methyl-indole-N-acetic Acid], the negative logarithm of the IC50 (pIC50) is 5.32.

Consider `O=C(O)Cn1cc(Cc2nc3c(F)c(F)cc(F)c3s2)c2ccc(F)cc21` [Example 8, 6-fluoro-3-(4,5,7-trifluorobenzothiazol-2-yl)methyl-indole-N-acetic Acid], for which the pIC50 is 5.12.

`O=C(O)Cn1cc(Cc2nc3c(F)c(F)cc(F)c3s2)c2cc(F)ccc21` [Example 9, 5-fluoro-3-(4,5,7-trifluorobenzothiazol-2-yl)methyl-indole-N-acetic Acid] showed a pIC50 of 4.68.

With `Cc1ccc2c(Cc3nc4c(F)c(F)cc(F)c4s3)cn(CC(=O)O)c2c1` [Example 10, 6-methyl-3-(4,5,7-trifluorobenzothiazol-2-yl)methyl-indole-N-acetic Acid], the pIC50 is 4.89.

`O=C(O)Cn1cc(Cc2nc3cc(C(F)(F)F)ccc3s2)c2ccccc21` [Example 11, 3-(5-trifluoromethylbenzothiazol-2-yl)methyl-indole-N-acetic Acid] had a pIC50 of 5.25.

`O=C(O)Cn1c(-c2ccccc2)c(Cc2nc3c(F)c(F)cc(F)c3s2)c2ccccc21` [Example 14, 2-phenyl-3-(4,5,7-trifluorobenzothiazol-2-yl)methyl-indole-N-acetic Acid]: the pIC50 is 4.80.

Consider `O=C(O)Cn1cc(Cc2nc3c(F)c(F)cc(F)c3s2)c2cc(-c3ccccc3)ccc21` [Example 15, 5-phenyl-3-(4,5,7-trifluorobenzothiazol-2-yl)methyl-indole-N-acetic acid], for which the pIC50 was 5.00.

Regarding `O=C(O)Cn1cc(Cc2nc3c(F)c(F)cc(F)c3s2)c2cc(N3CCOCC3)ccc21` [Example 17, 5-morpholino-3-(4,5.7-trifluorobenzothiazol-2-yl)methyl-indole-N-acetic Acid], the pIC50 is 4.39.

`O=C(O)Cn1cc(Cc2nc3c(F)c(F)cc(F)c3s2)c2cc(Oc3ccccc3)ccc21` [Example 19, 5-phenoxy-3-(4,5,7-trifluorobenzothiazol-2-yl)methyl-indole-N-acetic Acid] gave a pIC50 of 4.96.

`O=C(O)Cn1cc(Cc2nc3c(F)c(F)cc(F)c3s2)c2cccc(F)c21` [Example 20, 7-fluoro-3-(4,5,7-trifluorobenzothiazol-2-yl)methyl-indole-N-acetic Acid] showed a pIC50 of 5.15.

In the case of `O=C(O)Cn1cc(Cc2nc3c(F)c(F)cc(F)c3s2)c2cccc(Br)c21` [Example 21, 7-bromo-3-(4,5,7-trifluorobenzothiazol-2-yl)methyl-indole-N-acetic Acid], the pIC50 was 4.74.

Take `O=C(O)Cn1cc(Cc2nc3c(F)c(F)cc(F)c3s2)c2cccc(Cl)c21` [Example 22, 7-chloro-3-(4,5,7-trifluorobenzothiazol-2-yl)methyl-indole-N-acetic Acid]: the pIC50 is 4.72.

Regarding `CC(C(=O)O)n1cc(Cc2nc3c(F)c(F)cc(F)c3s2)c2ccccc21` (stereo not drawn) [Example 25, 3-(4.5,7-trifluorobenzothiazol-2-yl)methyl-indole-N-2-propionic Acid], the pIC50 was 5.19.

The compound `O=C(O)CCn1cc(Cc2nc3c(F)c(F)cc(F)c3s2)c2ccccc21` [Example 26, 3-(4-5.7-trifluorobenzothiazol-2-yl)methyl-indole-N-3-propionic Acid] had a pIC50 of 4.06.

In turn, `COc1ccc2c(Cc3nc4c(F)c(F)cc(F)c4s3)cn(CC(=O)O)c2c1` [Example 28, 6-Methoxy-3-(4,5,7-trifluorobenzothiazol-2-yl)methyl-indole-N-acetic acid] showed a pIC50 of 4.92.

Compound `O=C(O)Cn1cc(Cc2nc3c(F)c(F)cc(F)c3s2)c2c(Cl)cccc21` [Example 29, 4-Chloro-3-(4,5,7-trifluorobenzothiazol-2yl) methyl-indole-N-acetic Acid] gave a pIC50 of 4.85.

As to `COc1ccc2c(c1)c(Cc1nc3c(F)c(F)cc(F)c3s1)cn2CC(=O)O` [Example 30, 5-Methoxy-3-(4,5,7-trifluorobenzothiazol-2-yl) methyl-indole-N-acetic Acid], the pIC50 was 4.68.

As a reminder, the pIC50 is the negative decadic logarithm of the IC50, by convention in mol/L. High values mean a low IC50, low ones a high IC50.
